Results reported in US10202406B2, “Boron cluster compounds and uses thereof” (priority 2011, dated 2019).

System: mice
Test: Motor deficit testing, inverted screen test after injection
Conditions: mice after hind limb injection

9-Diethylaminoacetamido-1,7-closo-carborane [m-carborane lidocaine]
motor block (number of experiments with motor block): neither motor nor sensory block
